# Data from article PMC3183106 (Pharmacological research : the official journal of the …, 2011).
# Like-named read-outs stand apart in the source and are kept apart here.
# Columns and labels:
# [1] = mean ± SEM
# [2] = mean ± SEM; remark: listed apart in the source
substance,measurement,setting,value
ERN-cysteine,Percent of metabolite relative to total for respective ITC in the plasma,"[1]; 12 hrs after broccoli sprouts, GSTP1 A/A (n=7)",13.6 ± 0.59%
same,Percent of metabolite relative to total for respective ITC in the plasma,"[1]; 12 hrs after broccoli sprouts, GSTP1 A/G (n=5)",14.6 ± 1.20%
same,Percent of metabolite relative to total for respective ITC in the plasma,"[1]; 12 hrs after broccoli supplement, GSTP1 A/A (n=7)",12.09 ± 0.42%
same,Percent of metabolite relative to total for respective ITC in the plasma,"[1]; 12 hrs after broccoli supplement, GSTP1 A/G (n=5)",12.1 ± 1.59%
same,Percent of metabolite relative to total metabolites for respective ITC in urine,"[2]; first 12 hrs after broccoli sprouts, GSTP1 A/A (n=7)",16.4 ± 1.38%
same,Percent of metabolite relative to total metabolites for respective ITC in urine,"[2]; first 12 hrs after broccoli sprouts, GSTP1 A/G (n=5)",18.4 ± 2.42%
same,Percent of metabolite relative to total metabolites for respective ITC in urine,"[2]; first 12 hrs after broccoli supplement, GSTP1 A/A (n=7)",15.4 ± 2.51%
same,Percent of metabolite relative to total metabolites for respective ITC in urine,"[2]; first 12 hrs after broccoli supplement, GSTP1 A/G (n=5)",16.9 ± 2.68%
